One compound from patent US10604514B2, “6-(5-membered heteroaryl)isoquinolin-3-yl carboxamides and preparation and use thereof” (Samumed, LLC, priority 2017, dated 2020) can be followed below.

Chains of the proteins cited; added tags and fusions are not shown. Lines headed by an entry give the natural chain unless they say otherwise; changes in a name come on top.
UniProt P49841: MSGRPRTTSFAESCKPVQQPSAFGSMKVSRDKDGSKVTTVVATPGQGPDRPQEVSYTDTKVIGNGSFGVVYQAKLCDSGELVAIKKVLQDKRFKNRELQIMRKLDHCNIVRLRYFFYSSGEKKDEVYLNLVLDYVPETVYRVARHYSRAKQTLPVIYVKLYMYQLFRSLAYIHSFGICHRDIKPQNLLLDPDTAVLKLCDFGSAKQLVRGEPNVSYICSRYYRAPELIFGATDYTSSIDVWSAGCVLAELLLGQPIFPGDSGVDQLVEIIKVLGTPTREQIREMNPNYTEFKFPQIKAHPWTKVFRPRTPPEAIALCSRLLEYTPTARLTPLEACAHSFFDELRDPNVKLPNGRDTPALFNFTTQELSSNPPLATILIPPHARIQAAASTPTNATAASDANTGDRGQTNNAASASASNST

Structures are written as SMILES.

The target in this assay is GSK3β kinase (Homo sapiens (Human), UniProt P49841). The assay is described as follows: GSK3β kinase assay (Ser/Thr 09 peptide Z-lyte, FRET).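 Further: Coumarin/fluorescein emission ratio converted to percent phosphorylation against unphosphorylated (0%) and phosphorylated (100%) controls, 1 h compound incubation at room temperature, 11-point threefold dilutions from 10 µM, run in duplicate.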 In kind it is biochemical. The following applies: method text calls the value IC50.

Turning to `[2H]c1c(NC(=O)C2CCN(CC(C)C)CC2)ncc2ccc(-c3cnn(C)c3)cc12` [Compound 6, 1-Isobutyl-N-(6-(1-methyl-1H-pyrazol-4-yl)isoquinolin-3-yl-4-d)piperidine-4-carboxamide], the EC50 was determined as 51 nM.

One may read the EC50 as the concentration needed to bring the measured effect to its halfway point. A low value points to an effect from little substance.
